From PubChem BioAssay AID701 (PCMD, 2007)
The list shows a part of the results, in another mix than the full data. The source made the active and inactive calls. Rule as the data show it: active = inhibition above about 30%; inactive = the rest.

By UniProt entry, the sequences of proteins in these tests, tags left out. Residues count along the entry.
UniProt P00748, 20-372 limits assumed: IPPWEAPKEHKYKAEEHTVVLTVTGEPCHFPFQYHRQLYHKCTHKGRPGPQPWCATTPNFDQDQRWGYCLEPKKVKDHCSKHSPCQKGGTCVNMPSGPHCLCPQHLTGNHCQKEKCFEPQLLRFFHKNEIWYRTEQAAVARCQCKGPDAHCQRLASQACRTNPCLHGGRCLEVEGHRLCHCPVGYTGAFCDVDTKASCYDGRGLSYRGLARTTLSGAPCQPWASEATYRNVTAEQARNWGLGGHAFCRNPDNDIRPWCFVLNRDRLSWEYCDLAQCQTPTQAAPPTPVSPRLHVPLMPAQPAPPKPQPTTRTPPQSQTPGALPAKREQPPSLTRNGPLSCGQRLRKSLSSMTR
UniProt P00748, 373-615 limits assumed: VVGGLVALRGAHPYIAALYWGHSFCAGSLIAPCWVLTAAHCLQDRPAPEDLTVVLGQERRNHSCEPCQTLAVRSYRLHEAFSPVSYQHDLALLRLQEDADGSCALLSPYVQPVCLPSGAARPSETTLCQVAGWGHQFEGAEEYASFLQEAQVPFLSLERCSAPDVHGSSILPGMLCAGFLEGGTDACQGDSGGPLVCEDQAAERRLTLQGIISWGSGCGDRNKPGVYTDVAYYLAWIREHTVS

Molecular target: Coagulation factor XII (Homo sapiens) (UniProt P00748)
Test: human FXIIa protease inhibitors, primary screen, biochemical, single well (AID 701);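 also: 0% = enzyme with vehicle only and 100% = no enzyme blank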
Conditions: purified human FXIIa, AMC substrate fluorescence, 2 h; at 10 µM; hits give high values

Row | SMILES | inhibition
1 | CP(=O)(Nc1ccccn1)Oc1ccc(Cl)cc1 (stereo not given) | inactive: -1.94%
2 | COc1ccc(OP(C)(=O)Nc2cccc(F)c2)cc1 (stereo not given) | inactive: 7.63%
3 | Cc1cc(C)cc(OP(C)(=O)Nc2ccc(C)cc2C)c1 (stereo not given) | inactive: -7.56%
4 | Cc1cc(C)cc(OP(C)(=O)Nc2ccccn2)c1 (stereo not given) | inactive: 6.23%
5 | COc1ccccc1OP(C)(=O)Nc1c(C)cccc1C (stereo not given) | inactive: 2.42%
6 | CP(=O)(Nc1ccccc1)Oc1ccc(F)cc1 (stereo not given) | inactive: 9.51%
7 | CCN(CC)CCCOC(=O)C(O)(c1ccccc1)C1CCCCC1 (stereo not given) | inactive: 0.09%
8 | CN(C)CCOC(=O)C(O)(c1ccccc1)C1CCCC1 (stereo not given) | inactive: -1.33%
9 | COc1ccc(OP(C)(=O)Nc2ccccn2)cc1 (stereo not given) | inactive: -1.23%
10 | CCc1ccc(OP(C)(=O)O)cc1 | inactive: 4.32%
11 | COc1ccccc1OP(C)(=O)Nc1ccc(C)cc1C (stereo not given) | inactive: 5.74%
12 | Cc1c(NP(C)(=O)Oc2ccc(C(C)C)cc2)c(=O)n(-c2ccccc2)n1C (stereo not given) | inactive: 7.88%
13 | CP(=O)(OC12CC3CC(CC(C3)C1)C2)OC12CC3CC(CC(C3)C1)C2 | inactive: 2.56%
14 | CP(=O)(Nc1ccc(Cl)cc1)Oc1ccc(F)cc1 (stereo not given) | inactive: -10.4%
15 | CC(C)(C)c1ccc(OP(C)(=O)O)cc1 | inactive: -4.54%
